Test results: patent US10119958B2, “Arrays and methods for guided cell patterning” (University of Washington, priority 2007, dated 2018)
Like-named read-outs stand apart in the source and are kept apart here.

Tested on: RAW264.7 cells (murine monocyte/macrophage)
[1] = LPS 10 μg/mL, single cells, 238 electrodes

With lipopolysaccharide [LPS] the apoptosis (LPS 0.1 μg/mL) was “less than 8%”, the necrosis (LPS 0.1 μg/mL) was “no necrosis was identified” and the apoptosis (LPS 1.0 μg/mL) was “less than 8%”. For the same substance, the necrosis (LPS 1.0 μg/mL) was “no necrosis was identified”, the “apoptosis (positive Annexin V staining)” value [1] was 66.5% and the “necrosis (positive propidium iodide staining)” value [1] was 41.1%.
